Measurements taken from patent US20150045291A1, “LIPOPEPTIDE CONJUGATES COMPRISING SPHINGOLIPID AND HIV GP41 DERIVED PEPTIDES” (priority 2012, published 2015).
Starred links: 1 amine or outer side, 2 acyl side, 3 side chain; linkers in the order of their positions; H or OH if unused. Residues, ends and D or L forms follow the SMILES beside them. *: point of attachment. Sphinganine = CCCCCCCCCCCCCCC[C@@H](O)[C@H](CO)N*; CO = O=C([*:1])[*:2]

Test system: fully infectious HIV-1 HXB2
Experiment: Washing experiment: peptides pre-incubated with TZM-bl cells, washed, then HXB2 virus added
Conditions: 1 hour pre-incubation with TZM-bl cells, three washes

Compound | Fold increase in IC50 following cell washing, (IC50 1)/(IC50 2) [fold]
CCCCCCCCCCCCCCC[C@@H](O)[C@H](CO)NC(=O)N[C@@H](CC(C)C)C(=O)N[C@@H](CC(C)C)C(=O)N[C@@H](CCC(N)=O)C(=O)N[C@@H](CC(C)C)C(=O)N[C@H](C(=O)N[C@H](C(=O)N[C@@H](Cc1c[nH]c2ccccc12)C(=O)NCC(=O)N[C@H](C(=O)N[C@@H](CCCCN)C(=O)N[C@@H](CCC(N)=O)C(=O)N[C@@H](CC(C)C)C(=O)N[C@@H](CCC(N)=O)C(=O)N[C@@H](C)C(=O)N[C@@H](CCCNC(=N)N)C(=O)N[C@H](C(=O)N[C@@H](CC(C)C)C(N)=O)[C@@H](C)CC)[C@@H](C)CC)C(C)C)[C@@H](C)O [Sphinganine-N17, Sphinganine-LLQLTVWGIKQLQARIL] ({Sphinganine-CO}-LLQLTVWGIKQLQARIL-NH2) | 5
enfuvirtide | 36
